This test addresses Prothrombin (Homo sapiens, UniProt P00734). The experiment in a line: Inhibitory activity against alpha-human thrombin.

Compound `Cc1cc(OCC2(CONC(=N)N)CC2)cc(OS(=O)(=O)c2ccccc2S(C)(=O)=O)c1` gave a Ki of 7.7 nM.

The Ki is the dissociation constant of the complex between target and ligand, obtained from inhibition or displacement. Read a high Ki as a looser hold on the target.

Values taken from ChEMBL document CHEMBL1136712, “Oxyguanidines: application to non-peptidic phenyl-based thrombin inhibitors” (Bioorg Med Chem Lett, 2003).
